Results reported in ChEMBL document CHEMBL1125523, “Novel indolodioxanes with antihypertensive effects: potent ligands for the 5-HT1A receptor” (J Med Chem, 1992).

By UniProt entry, the sequences of proteins in these tests, tags left out.
UniProt P33533, whole entry: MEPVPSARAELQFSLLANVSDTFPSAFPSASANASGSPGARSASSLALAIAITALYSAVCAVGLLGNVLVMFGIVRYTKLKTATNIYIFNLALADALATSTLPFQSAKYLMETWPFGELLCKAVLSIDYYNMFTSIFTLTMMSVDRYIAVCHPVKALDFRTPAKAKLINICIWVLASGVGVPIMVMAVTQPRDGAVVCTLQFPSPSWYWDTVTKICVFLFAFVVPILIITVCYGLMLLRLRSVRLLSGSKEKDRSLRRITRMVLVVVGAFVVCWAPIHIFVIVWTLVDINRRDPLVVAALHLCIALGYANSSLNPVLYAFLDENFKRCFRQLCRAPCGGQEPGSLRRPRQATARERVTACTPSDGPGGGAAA
UniProt P34975, whole entry: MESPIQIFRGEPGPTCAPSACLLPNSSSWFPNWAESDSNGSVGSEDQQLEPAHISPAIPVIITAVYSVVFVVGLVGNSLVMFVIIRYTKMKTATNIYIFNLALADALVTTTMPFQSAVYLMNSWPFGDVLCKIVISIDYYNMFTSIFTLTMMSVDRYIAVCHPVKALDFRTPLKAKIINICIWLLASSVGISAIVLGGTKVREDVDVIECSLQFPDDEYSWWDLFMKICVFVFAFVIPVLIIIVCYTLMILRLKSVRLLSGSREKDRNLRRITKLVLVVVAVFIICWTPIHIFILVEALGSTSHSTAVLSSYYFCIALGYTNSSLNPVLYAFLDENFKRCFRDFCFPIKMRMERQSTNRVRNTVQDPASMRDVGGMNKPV
UniProt P33535, whole entry: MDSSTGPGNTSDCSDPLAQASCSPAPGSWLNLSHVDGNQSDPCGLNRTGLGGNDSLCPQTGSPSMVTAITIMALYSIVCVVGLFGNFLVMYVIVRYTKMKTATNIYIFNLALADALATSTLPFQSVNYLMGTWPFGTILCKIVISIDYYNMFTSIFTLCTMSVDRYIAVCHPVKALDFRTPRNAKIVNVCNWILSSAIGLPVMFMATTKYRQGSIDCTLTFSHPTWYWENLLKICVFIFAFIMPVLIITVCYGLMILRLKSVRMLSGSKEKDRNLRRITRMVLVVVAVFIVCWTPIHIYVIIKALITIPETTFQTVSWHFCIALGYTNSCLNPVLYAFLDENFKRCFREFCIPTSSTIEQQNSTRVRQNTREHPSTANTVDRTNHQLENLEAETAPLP

Assays:
Opioid receptor [1] = molecular target: T1, Opioid receptor (Rattus norvegicus, UniProt P33533+P34975+P33535); assay: Compound was evaluated for the binding affinity towards opioid receptor from rat whole brain using [3H]etorpine (33.2 Ci/mmol,0.2nanoM)as radioligand
Opioid receptor [2] = molecular target: T1, Opioid receptor; assay: Binding affinity towards opioid receptor from rat whole brain using [3H]etorpine as radioligand

| SMILES | Ki (Opioid receptor [1]) [nM] | Ki (Opioid receptor [2]) [nM] |
| --- | --- | --- |
| NC(=O)c1cc2c3c(ccc2[nH]1)OCC(CN1CCC2(CC1)C(=O)NCN2c1ccccc1)O3 (stereo not given) | 0.6 | – |
| N#Cc1cc2c3c(ccc2[nH]1)OCC(CN1CCC2(CC1)C(=O)NCN2c1ccccc1)O3 (stereo not given) | 0.1 | – |
| CCCCOC(=O)c1cc2c3c(ccc2[nH]1)OCC(CN1CCC2(CC1)C(=O)NCN2c1ccccc1)O3 (stereo not given) | 3.1 | – |
| COC(=O)c1cc2c3c(ccc2[nH]1)OCC(CN1CCC2(CC1)C(=O)NCN2c1ccccc1)O3 (stereo not given) | – | 6.5 |
| O=C1NCN(c2ccccc2)C12CCN(CC1COc3ccc4[nH]c(CO)cc4c3O1)CC2 (stereo not given) | 3.3 | – |
